Publication PMC3592791, “Fluorescence-Based High-Throughput Functional Profiling of Ligand-Gated Ion Channels at the Level of Single Cells” (PLoS ONE, 2013)

Chains of the proteins cited; added tags and fusions are not shown. Residues count along the entry.
UniProt P48167, 23-497: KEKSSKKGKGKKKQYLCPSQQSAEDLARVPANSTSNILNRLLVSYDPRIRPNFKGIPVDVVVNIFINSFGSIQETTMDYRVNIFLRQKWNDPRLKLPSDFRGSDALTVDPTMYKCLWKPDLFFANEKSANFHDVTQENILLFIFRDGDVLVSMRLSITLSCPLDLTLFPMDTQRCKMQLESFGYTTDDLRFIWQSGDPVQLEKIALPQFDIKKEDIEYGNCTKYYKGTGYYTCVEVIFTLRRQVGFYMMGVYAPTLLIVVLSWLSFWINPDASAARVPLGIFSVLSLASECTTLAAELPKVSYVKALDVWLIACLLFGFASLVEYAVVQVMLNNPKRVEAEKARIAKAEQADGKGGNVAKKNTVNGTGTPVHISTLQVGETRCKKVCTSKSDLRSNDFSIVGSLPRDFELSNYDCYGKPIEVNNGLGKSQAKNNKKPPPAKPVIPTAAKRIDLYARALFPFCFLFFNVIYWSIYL

Legend:
[1] = target: T1, α2 GlyR (Homo sapiens, UniProt P23416); type: cell-based; conditions: read-out: Averaged glycine EC50
T1 construct: expressed in transfected cells; host or cells: HEK293
T1 sequence (P23416 28-452): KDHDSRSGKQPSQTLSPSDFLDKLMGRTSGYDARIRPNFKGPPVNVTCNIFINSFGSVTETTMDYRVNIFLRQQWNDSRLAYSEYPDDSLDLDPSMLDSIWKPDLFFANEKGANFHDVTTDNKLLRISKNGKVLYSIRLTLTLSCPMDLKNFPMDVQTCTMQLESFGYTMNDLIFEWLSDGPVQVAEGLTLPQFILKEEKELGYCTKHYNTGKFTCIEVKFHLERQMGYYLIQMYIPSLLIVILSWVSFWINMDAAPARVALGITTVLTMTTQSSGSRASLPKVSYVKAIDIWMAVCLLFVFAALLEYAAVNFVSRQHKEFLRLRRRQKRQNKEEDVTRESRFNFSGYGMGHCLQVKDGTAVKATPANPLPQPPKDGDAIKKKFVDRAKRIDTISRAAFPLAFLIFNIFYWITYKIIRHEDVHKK
Description: (§1) plated into 60-mm culture dishes and were transfected when approx. 80% confluent. YFP and GlyR chloride channel subunits were transfected in 1∶1 (YFP and α1-3 GlyR homomers) or 2∶1∶1 ratio (YFP, GlyR α1-3 homo and α1-3β GlyR heteromers) with a total cDNA quantity of 1 µg. Cells were transfected using calcium phosphate precipitation transfection technique, as described in Sambrook et al.. […] We have published a detailed comparison of five transient transfection methods employed routinely in the laboratory for this purpose.
(§2) The human α1, α2 and α3 GlyR plasmid DNAs were subcloned into the pcDNA3.1 plasmid vector and the human β subunit plasmid DNA was subcloned into pIRES2-EGFP plasmid vector. […]
(§3) Following termination of transfection, cells were trypsinized by adding 0.7 mL of 0.25% trypsin–EDTA solution (Gibco BRL), resuspended into DMEM, and 2.5×10^3 cells, suspended in 40 µL DMEM, were plated into each well of a transparent 384-well plate for fluorescence imaging experiments. […]
(§4) Images of fluorescent cells were segmented and quantitatively analyzed using a modified version of DetecTIFF® software. In brief, images were segmented using an iterative size and intensity-based thresholding algorithm and the fluorescence signal of identified cells was calculated as the mean of all pixel values within the area of a cell. […]

[2] = target: T2, α2β GlyR (Homo sapiens, UniProt P23416+P48167); type: cell-based; conditions: read-out: Average half-maximal activation by glycine (EC50), control conditions
T2 construct: expressed in transfected cells; host or cells: HEK293
Description: as §1, §2, §3, §4

NCC(=O)O [glycine]
EC50 [1]: 49 ± 2 µM | EC50 [2]: 30 ± 2 µM
